# Several values for one entry are separate records, joined by “and”; a condition that tells them apart may be missing. Equal values may be shown once. The list shows a part of the results, in another mix than the full data. Results filed as inconclusive are left out. The source holds several records for some structures; these can differ, active in one and inactive in another. Activity calls are given as the source filed them. How the source made its calls, unless noted: active means hit-call score of the fitted dose curve at least 0.9, where 1 is the maximum; inactive means score below 0.9.
# By UniProt entry, the sequences of proteins in these tests, tags left out.
# UniProt P03372, whole entry, looked up: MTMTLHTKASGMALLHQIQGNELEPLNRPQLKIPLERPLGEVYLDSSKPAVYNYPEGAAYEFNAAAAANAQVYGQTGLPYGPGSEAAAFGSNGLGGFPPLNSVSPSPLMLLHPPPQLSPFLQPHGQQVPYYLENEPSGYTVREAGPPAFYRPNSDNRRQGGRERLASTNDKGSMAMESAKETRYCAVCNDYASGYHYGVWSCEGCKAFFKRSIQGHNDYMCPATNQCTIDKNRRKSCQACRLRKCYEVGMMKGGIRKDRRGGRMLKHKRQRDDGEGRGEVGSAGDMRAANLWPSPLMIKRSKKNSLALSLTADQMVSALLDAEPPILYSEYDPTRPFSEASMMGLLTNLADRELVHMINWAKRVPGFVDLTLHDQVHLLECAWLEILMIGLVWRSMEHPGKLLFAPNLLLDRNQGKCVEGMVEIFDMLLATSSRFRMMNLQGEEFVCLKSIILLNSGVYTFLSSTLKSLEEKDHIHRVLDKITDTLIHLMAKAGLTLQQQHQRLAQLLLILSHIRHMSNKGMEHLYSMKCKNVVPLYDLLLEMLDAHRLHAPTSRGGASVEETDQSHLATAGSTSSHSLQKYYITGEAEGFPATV
# Key:
# [1] = CCTE_Shafer_MEA_acute_per_network_burst_spike_number_mean: CCTE's Neural Acute Assay for Average Number of Spikes in a Network Burst, Shafer Lab (AID 2284019);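 on AC50: curve fitted for loss of signal so actives reduce spikes per network burst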
# In short: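 Read-out is mean spike count per network burst, taken as percent change between a 40-min pre-exposure and a 40-min post-exposure recording per well. Rat primary cortical neurons on MEAs at 37 C, DIV 13 or 15; compounds at 0.03-40 uM.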
# [2] = CCTE_Shafer_MEA_acute_per_network_burst_spike_number_std: CCTE's Neural Acute Assay for Standard Deviation of Number of Spikes in a Network Burst, Shafer Lab (AID 2284020);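 further: fitted for decrease in spike-number SD versus DMSO so actives lower it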
# In short: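 Spontaneous network activity of primary rat cortical neurons is recorded extracellularly before and after a 40-min compound exposure (0.03-40 uM) at 37 C. The endpoint is the well's percent change in burst spike-number SD.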
# [3] = CCTE_Shafer_MEA_acute_per_network_burst_electrodes_number_mean: CCTE's Neural Acute Assay for Mean Number of Electrodes in a Network Burst, Shafer Lab (AID 2284021);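 further: curves fitted for decreases only so hits reduce electrodes per burst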
# In short: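 Cultures of rat cortex neurons were exposed on DIV 13 or 15 to compounds at 0.03-40 uM in at least three wells each. Activity over 40 min before and 40 min after exposure at 37 C gave the percent change in electrodes per network burst.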
# [4] = CCTE_Shafer_MEA_acute_cross_correlation_area: CCTE's Neural Acute Assay for Area of Cross Correlation, Shafer Lab (AID 2284024);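 further: area under pooled inter-electrode spike cross-correlation near zero lag as percent change from own baseline; curves fitted for loss of cross-correlation area so actives lower synchrony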
# In short: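 Acute exposure of mature rat cortical networks (day 13 or 15 post-plating) to 0.03-40 uM compound. Spontaneous spiking on MEA, 40 min pre- and post-dose at 37 C.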
# [5] = CCTE_Shafer_MEA_acute_cross_correlation_HWHM: CCTE's Neural Acute Assay for Cross Correlation at Half Width at Half Maximum, Shafer Lab (AID 2284026);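 further: percent change per well from pre-dose baseline in spike cross-correlogram half width; hits are a decrease in cross-correlogram half width relative to DMSO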;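 on outcome: spontaneous network firing of rat primary cortical neurons on multiwell microelectrode arrays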
# In short: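 Primary cortex (rat), MEA, DIV 13/15; compound 0.03-40 uM; 40 min pre + 40 min post at 37 C; spike threshold 8x rms; wells need ≥10 active electrodes; endpoint = % change in cross-correlogram HWHM vs baseline, DMSO negative control.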
# [6] = CCTE_Shafer_MEA_acute_synchrony_index: CCTE's Neural Acute Assay for Synchrony, Shafer Lab (AID 2284027);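 further: network synchrony index of spontaneous spiking in primary rat cortical neurons on MEAs; fitted for loss of signal so actives lower synchrony relative to DMSO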
# In short: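 Primary rat cortical neurons on 48-well MEAs, dosed at 0.03–40 uM on DIV 13 or 15. Spikes are recorded for 40 min at 37C before and after exposure, and synchrony index (0–1) is expressed as percent change from baseline per well.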
# [7] = CCTE_Shafer_MEA_acute_network_burst_percentage: CCTE's Neural Acute Assay for Percentage of Network Bursts, Shafer Lab (AID 2284022);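 further: curves fitted for loss so actives lower network burst percentage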
# In short: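 Cortical neurons from rat were grown over microelectrode arrays and used on day 13 or 15 in vitro. Wells with at least 10 active electrodes received test chemical at 0.03-40 uM. Activity during 40 min of exposure was compared with the preceding 40-min baseline.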
# [8] = CCTE_Shafer_MEA_dev_firing_rate_mean: CCTE's Neural Network Formation Assay for Mean Firing Rate, Shafer Lab (AID 2284031);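 on AC50: curve fitted for loss of firing so AC50 reflects decreased mean firing rate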
# In short: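 Primary rat cortical neurons on 48-well MEA plates, exposed from plating day 0 with dosing renewed on DIV 5 and 9. Mean well firing rate over active electrodes, recorded days 5, 7, 9, 12, summarised as trapezoidal AUC.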
# [9] = CCTE_Shafer_MEA_dev_per_burst_spike_percent: CCTE's Neural Network Formation Assay for Percent of Spikes in a Burst, Shafer Lab (AID 2284032)
# In short: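 Rat primary cortical neurons on 16-electrode MEA wells, dosed from plating day 0 for 12 days with renewal on DIV 5 and 9; spikes-in-bursts percentage averaged over bursting electrodes, collapsed as AUC across days 5, 7, 9, 12; loss direction versus DMSO.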
# [10] = CCTE_Shafer_MEA_dev_active_electrodes_number: CCTE's Neural Network Formation Assay for Number of Active Electrodes, Shafer Lab (AID 2284040; active means hit-call score of the fitted dose curve at least 0.9, where 1 is the maximum;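 on AC50: potency for loss of active electrodes versus DMSO so lower counts are hits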)
# In short: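 Primary rat cortical neurons on 16-electrode MEA wells, exposed from day 0 through day 12 with compound renewed at DIV 5 and 9 feeds. Active electrodes (mean firing ≥5 spikes/min) counted at DIV 5, 7, 9, 12; trapezoidal AUC across days, loss-of-signal versus DMSO.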
# [11] = CCTE_Shafer_MEA_dev_burst_rate: CCTE's Neural Network Formation Assay for Burst Rate, Shafer Lab (AID 2284042)
# In short: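 Cells plated, treated day 0; recorded DIV 5, 7, 9, 12; fed and re-treated DIV 5, 9. Endpoint: bursts per recording time, active-electrode well mean, trapezoidal AUC, fitted in decreasing direction against DMSO baseline.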
# [12] = CCTE_Shafer_MEA_dev_bursting_electrodes_number: CCTE's Neural Network Formation Assay for Number of Bursting Electrodes, Shafer Lab (AID 2284043; active means hit-call score of the fitted dose curve at least 0.9, where 1 is the maximum;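 on AC50: potency is for loss of bursting electrodes relative to DMSO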)
# In short: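 Read-out is the per-well number of electrodes bursting at least once every 2 minutes, recorded on days 5, 7, 9 and 12 and collapsed by trapezoidal area under the curve. Cultures were primary rat cortical neurons on MEA plates, treated continuously from plating.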
# [13] = CCTE_Shafer_MEA_dev_per_burst_interspike_interval: CCTE's Neural Network Formation Assay for Burst Interspike Interval, Shafer Lab (AID 2284044);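 further: mean spike spacing inside bursts as AUC over recordings on days 5 7 9 12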;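 on AC50: potency for a decrease of within-burst interspike interval below DMSO level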
# In short: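 Developmental network-formation MEA in primary rat cortical cultures with exposure spanning days 0–12. Within-burst ISI is averaged per well and integrated across recording days by area under the curve, with DMSO as negative control baseline.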
# [14] = CCTE_Shafer_MEA_dev_burst_duration_mean: CCTE's Neural Network Formation Assay for Mean Burst Duration, Shafer Lab (AID 2284045);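 on AC50: curve fitted for loss meaning shorter burst duration than DMSO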
# In short: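 Read-out: average first-to-last-spike interval within single-electrode bursts, averaged over bursting electrodes per well, then summarised as area under the curve across days 5, 7, 9 and 12. Developing rat cortical networks were exposed from day 0.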
# [15] = CCTE_Shafer_MEA_dev_interburst_interval_mean: CCTE's Neural Network Formation Assay for Mean Interburst Interval, Shafer Lab (AID 2284046);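 further: well-mean interburst interval of bursting electrodes as AUC over four recording days; curve fitted for decrease in interburst interval relative to DMSO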
# In short: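 Developing rat cortical networks on 48-well MEAs receive compound from the day of plating. Burst intervals from each active electrode are averaged per well, and AUC over the recording days is fitted in the negative direction against DMSO.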
# [16] = CCTE_Shafer_MEA_dev_inter_network_spike_interval_mean: CCTE's Neural Network Formation Assay for Mean Inter-network Spike Interval, Shafer Lab (AID 2284047)
# In short: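 Rat cortical cultures, 1.5 x 10^5 cells/well on 48-well MEA plates; continuous exposure days 0–12, medium and compound refreshed DIV 5, 9. Mean time between consecutive network-spike peaks; AUC across DIV 5/7/9/12; DMSO baseline, negative fitting direction.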
# [17] = CCTE_Shafer_MEA_dev_network_spike_number: CCTE's Neural Network Formation Assay for Number of Network Spikes, Shafer Lab (AID 2284048);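 further: synchronized bursts across electrodes counted on days 5 7 9 12 and integrated as AUC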;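 on AC50: fit as a loss of signal meaning fewer network spikes than DMSO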
# In short: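 Developing networks of primary rat cortical neurons are treated over 12 days starting at plating, with media and compound fully replaced on DIV 5 and 9. Network spike counts from four recording days are integrated as trapezoidal AUC.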
# [18] = biological target: Estrogen receptor (Homo sapiens) (UniProt P03372); assay: CCTE_Deisenroth_AIME_384WELL_LUC_Active: CCTE's 384-well Estrogen Receptor Transactivation Assay with AIME metabolic competence (ERTA luciferase; metabolism positive), Deisenroth Lab (AID 2284030; active means hit-call score of the fitted dose curve at least 0.9, where 1 is the maximum)
# In short: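 In this metabolism-positive format, a 2-hour exposure to alginate-immobilized rat S9 precedes a 24 hour luciferase transactivation readout in VM7Luc4E2 cells. Dosing spans 10 concentrations from 0.002 to 200 uM.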
# [19] = biological target: Estrogen receptor (Homo sapiens) (UniProt P03372); assay: CCTE_Deisenroth_AIME_384WELL_LUC_Inactive: CCTE's 384-well Estrogen Receptor Transactivation Assay without AIME metabolic competence (ERTA luciferase; metabolism negative), Deisenroth Lab (AID 2284038; active means hit-call score of the fitted dose curve at least 0.9, where 1 is the maximum;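 further: VM7Luc4E2 breast cells given medium preincubated 2 h with S9-free microspheres; hits raise estrogen receptor luciferase signal so potencies reflect agonists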)
# In short: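 Metabolism-negative mode: chemicals (10-point, 0.002–200 uM) held 2 h with alginate-water microspheres, then conditioned medium applied to VM7Luc4E2 cells for 24 h. Luciferase induction referenced to 17beta-estradiol.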
# [20] = biological target: Estrogen receptor (Homo sapiens) (UniProt P03372); assay: CCTE_Deisenroth_AIME_384WELL_LUC_Shift: CCTE's 384-well Estrogen Receptor Transactivation Assay with AIME metabolic competence data shift (ERTA luciferase; difference in metabolism positive and negative), Deisenroth Lab (AID 2284041);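 further: shift is response with S9 minus without S9 so positive means metabolism raised ER signal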
# In short: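 Test chemicals (0.002–200 uM, 10-point) were pre-incubated 2 h with alginate microspheres containing phenobarbital/beta-naphthoflavone-induced male Sprague Dawley rat liver S9 or water, then medium was transferred to VM7Luc4E2 cells for 24 h luciferase readout; shift = S9-positive minus S9-negative normalized response.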
smiles,measurement,setting,value
O=C1C2CC=CCC2C(=O)N1SC(Cl)(Cl)C(Cl)Cl (stereo not drawn),outcome,[1],inactive
same,outcome,[2],inactive
same,outcome,[3],inactive
same,outcome,[4],inactive
same,outcome,[5],inactive
same,outcome,[6],inactive
CN(C(=O)Cc1cccc2occc12)[C@H]1CC[C@@]2(CCCO2)C[C@@H]1N1CCCC1,AC50,[1],active: 0.274 µM
same,AC50,[2],active: 5.14 µM
same,AC50,[3],active: 36.1 µM
same,AC50,[7],active: 30.5 µM
same,outcome,[4],inactive
same,AC50,[5],active: 7.38 µM
same,AC50,[6],active: 32.8 µM
same,outcome,[8],inactive
same,outcome,[9],inactive
same,AC50,[10],active: 16.6 µM
same,outcome,[11],inactive
same,AC50,[12],active: 15 µM
same,outcome,[13],inactive
same,outcome,[14],inactive
same,outcome,[15],inactive
same,outcome,[16],inactive
same,outcome,[17],inactive
ClP(Cl)c1ccccc1,outcome,[18],inactive
same,outcome,[19],inactive
same,outcome,[20],inactive
CC(C)OP(=S)(OC(C)C)SCCNS(=O)(=O)c1ccccc1,outcome,[1],inactive
same,outcome,[2],inactive
same,outcome,[3],inactive
same,outcome,[7],inactive
same,outcome,[4],inactive
same,AC50,[5],active: 20 µM
same,AC50,[6],active: 31.9 µM
same,AC50,[8],active: 16.9 µM and active: 13.8 µM
same,AC50,[10],active: 34.5 µM and active: 12.5 µM
same,AC50,[12],active: 25.8 µM and active: 13.3 µM
same,AC50,[13],active: 18.7 µM and active: 8.61 µM
same,AC50,[14],active: 12.3 µM
same,outcome,[14],inactive
same,AC50,[15],active: 24.2 µM and active: 8.4 µM
same,outcome,[16],inactive
same,AC50,[17],active: 15.9 µM
same,outcome,[17],inactive
CC(C)OP(=O)(OC(C)C)SCCNS(=O)(=O)c1ccccc1,AC50,[8],active: 30.3 µM
same,outcome,[9],inactive
same,outcome,[10],inactive
same,outcome,[11],inactive
same,outcome,[12],inactive
same,outcome,[13],inactive
same,outcome,[14],inactive
same,outcome,[15],inactive
same,outcome,[16],inactive
same,outcome,[17],inactive

# From PubChem BioAssay (EPA / NIEHS)
